This is a selection; strong and weak results do not stand in their true shares. Results filed as inconclusive are left out. The source made the active and inactive calls. Unless noted, calls follow the shape of the dose curve; as a rule, active = well fitted curve in the direction sought with a large enough effect; inconclusive = small, poorly fitted or top-dose-only effect, or another doubt; inactive = no such curve, though single readings can be large; an effect the other way counts as inactive or inconclusive.
Experiments:
[1] = Quantitative High-Throughput drug screen in 47 multiple myeloma cell lines against the NCATS MIPE library collection: XG6_PLB cell viability assay (AID 1919865); settings: XG6 myeloma viability, CellTiter-Glo ATP luminescence, 48 h; at 45.8 µM (top of the series);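 also: 100% = DMSO-only wells and 0% = media-only wells; nearly all actives have a fitted effect of over 40% in size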
Method in brief: (§1)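 Cells were exposed to library compounds for 48 hours, after which ATP was measured by CellTiter-Glo. Signal was taken as median relative luminescence units.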

[2] = Quantitative High-Throughput drug screen in 47 multiple myeloma cell lines against the NCATS MIPE library collection: XG1_PLB cell viability assay (AID 1919866); settings: CellTiter-Glo ATP, 48 h; at 45.8 µM (top of the series); also: nearly all actives have a fitted effect of over 35% in size
Method in brief: as §1

[3] = Quantitative High-Throughput drug screen in 47 multiple myeloma cell lines against the NCATS MIPE library collection: PCM6_Riken cell viability assay (AID 1919870); settings: CellTiter-Glo ATP, 48 h; at 45.8 µM (top of the series);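 also: 100% = DMSO-only wells and 0% = media-only wells; nearly all actives have a fitted effect of over 30% in size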
Method in brief: as §1

[4] = Quantitative High-Throughput drug screen in 47 multiple myeloma cell lines against the NCATS MIPE library collection: RPMI8226_ATCC cell viability assay (AID 1919871); settings: RPMI8226 myeloma viability, CellTiter-Glo ATP luminescence, 48 h; at 45.8 µM (top of the series); also: nearly all actives have a fitted effect of over 30% in size
Method in brief: as §1

[5] = Quantitative High-Throughput drug screen in 47 multiple myeloma cell lines against the NCATS MIPE library collection: OPM2_DSMZ cell viability assay (AID 1919872); settings: OPM2 myeloma viability, CellTiter-Glo ATP luminescence, 48 h; at 45.8 µM (top of the series); also: nearly all actives have a fitted effect of over 30% in size
Method in brief: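 Inhibition of cell viability is measured here. Each line was plated at 500 cells per well, treated with MIPE 4.0 drugs, kept 48 hours at 37C, then assayed for ATP content by CellTiter-Glo luminescence.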

[6] = Quantitative High-Throughput drug screen in 47 multiple myeloma cell lines against the NCATS MIPE library collection: KMS28BM_JCRB cell viability assay (AID 1919874); settings: CellTiter-Glo ATP, 48 h; at 45.8 µM (top of the series); also: nearly all actives have a fitted effect of over 35% in size
Method in brief: as §1

[7] = qHTS drug screen for cell cycle checkpoint inhibitors in PARPi-resistant BRCA-mutant ovarian cancer cell lines. (AID 1963452; calls by dose curve); settings: PEO1/OlaR viability, CellTiter-Glo luminescence, 96 h; stronger effect = lower value
Method in brief: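 PEO1, PEO4 and PEO1/OlaR ovarian cancer cells, 600 per well, exposed 96 h at 37C to a dilution series. Viability read by CellTiter-Glo luminescence, normalized to DMSO and empty wells; activity summarized as Z-AUC.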

CRL-7250 = normal cell line; assay: Cytotoxic Profiling of Annotated Libraries Using Quantitative High-Throughput Screening (AID 1296008); settings: Five cell lines viability, CellTiter-Glo ATP luminescence, 48-72 h, stronger effect = lower value; also: nearly all actives have a fitted effect of over 60% in size; as to max response: % is scaled to controls: 0 for no effect and ±100 for the full control effect
Method in brief: (§2)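 Cells exposed to compounds for 48 or 72 hr at 37 degrees Celsius. Viability read as ATP-coupled luminescence with CellTiter-Glo after 10 min at room temperature.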

HEK293 = assay: as above; settings: Five cell lines viability, CellTiter-Glo ATP luminescence, 48-72 h, stronger effect = lower value
Method in brief: as §2

HaCat [8] = assay: as above; settings: Five cell lines viability, CellTiter-Glo ATP luminescence, 48-72 h
Method in brief: as §2

KB-3-1 = assay: as above; settings: Five cell lines viability, CellTiter-Glo ATP luminescence, 48-72 h, stronger effect = lower value
Method in brief: as §2

NIH3T3 [9] = assay: as above; settings: Five cell lines viability, CellTiter-Glo ATP luminescence, 48-72 h; stronger effect = lower value
Method in brief: as §2

HACAT [10] = assay: qHTS assay to identify novel small-molecules to repurpose for Merkel cell carcinoma treatment (AID 1296009); settings: MCC and control cell lines, CellTiter-Glo viability, 72 h; at 44.8 µM (top of the series); also: nearly all actives have a fitted effect of over 60% in size; as to activity change, negative = cytotoxicity: % is scaled to controls: 0 for no effect and ±100 for the full control effect
Method in brief: (§3)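 Dose-response viability screen; 72 hr exposure at 37 degree celsius; CellTiter-Glo added, 10 min room temperature, luminescence read; RLUs scaled between no-cell and DMSO wells.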

MCC-13 = assay: as above; settings: MCC and control cell lines, CellTiter-Glo viability, 72 h; at 46 µM (top of the series)
Method in brief: as §3

MCC-26 = assay: as above; settings: MCC and control cell lines, CellTiter-Glo viability, 72 h; at 46 µM (top of the series)
Method in brief: as §3

MKL-1 = assay: as above; settings: MCC and control cell lines, CellTiter-Glo viability, 72 h; at 46 µM (top of the series)
Method in brief: as §3

MKL-2 = assay: as above; settings: MCC and control cell lines, CellTiter-Glo viability, 72 h; at 46 µM (top of the series)
Method in brief: as §3

UISO = assay: as above; settings: MCC and control cell lines, CellTiter-Glo viability, 72 h; at 46 µM (top of the series)
Method in brief: as §3

WaGa = assay: as above; settings: MCC and control cell lines, CellTiter-Glo viability, 72 h; at 46 µM (top of the series)
Method in brief: as §3

NIH3T3 [11] = assay: as above; settings: MCC and control cell lines, CellTiter-Glo viability, 72 h; at 44.8 µM (top of the series)
Method in brief: as §3

CCOC(=O)C(=O)CBr
inactive: viability (% of control) [1] 102% | viability [2] 87.7% | viability (% of control) [3] 82.5% | viability (% of control) [4] 83.4% | viability (% of DMSO) [5] 112% | viability, % of control [6] 112% | Z-AUC [7] 0.416 | max response (CRL-7250) 2.38% | max response (HEK293) -2.98% | outcome (HaCat [8]) | max response (KB-3-1) -2.32% | max response (NIH3T3 [9]) -2.77% | outcome (HACAT [10]) | activity change, negative = cytotoxicity (MCC-13) 0.235% | activity change, negative = cytotoxicity (MCC-26) -6.43% | activity change, negative = cytotoxicity (MKL-1) -10.8% | activity change, negative = cytotoxicity (MKL-2) -19.1% | activity change, negative = cytotoxicity (UISO) -0.074% | activity change, negative = cytotoxicity (WaGa) -4.74%

CCOC(=O)N1CCC(=O)CC1
inactive: max response (CRL-7250) -2.46% | max response (HEK293) -1.24% | outcome (HaCat [8]) | outcome (NIH3T3 [9]) | outcome (HACAT [10]) | activity change, negative = cytotoxicity (MCC-13) 6.74% | activity change, negative = cytotoxicity (MCC-26) 5.04% | activity change, negative = cytotoxicity (MKL-1) 22.2% | activity change, negative = cytotoxicity (MKL-2) 6.62% | outcome (NIH3T3 [11]) | activity change, negative = cytotoxicity (UISO) 11.7% | activity change, negative = cytotoxicity (WaGa) 7.91%

CC(=O)N1CCc2ccc(N(C(=O)/C=C/c3cccc(C#N)c3)C3CCN(CCC4CCCC4)CC3)cc21
inactive: max response (CRL-7250) -13.4% | max response (HEK293) -7.17% | max response (KB-3-1) -0.0041% | max response (NIH3T3 [9]) -78.6%

CCC(=O)N(c1ccccc1)C1CCNCC1
inactive: max response (CRL-7250) -2.98% | max response (HEK293) -1.73% | outcome (HaCat [8]) | max response (NIH3T3 [9]) 0.954% | outcome (HACAT [10]) | activity change, negative = cytotoxicity (MCC-13) 12.9% | activity change, negative = cytotoxicity (MCC-26) -3.85% | activity change, negative = cytotoxicity (MKL-1) -10.3% | activity change, negative = cytotoxicity (MKL-2) -0.735% | activity change, negative = cytotoxicity (UISO) -9.91% | activity change, negative = cytotoxicity (WaGa) -20.1%

Source: PubChem BioAssay (NCATS)
